This is an account of results in patent publication US20250057930A1, “ANAPLASTIC LYMPHOMA KINASE (ALK) CANCER VACCINES AND METHODS OF USE THEREOF” (The Children's Medical Center Corporation, priority 2022, published 2025).

The test system of assay [1] is ALK-rearranged (ALK^+) NSCLC. To be noted: first-line treatment; cited from earlier work.
Assay [2] concerns hEML4-ALK Tg mice (ALK^+ lung tumors). The assay can be described thus: Lung tumor volume by MRI and survival in hEML4-ALK Tg mice.

On to `CCc1cc2c(cc1N1CCC(N3CCOCC3)CC1)C(C)(C)c1[nH]c3cc(C#N)ccc3c1C2=O` [alectinib], for which the “time to disease progression in most patients” value in assay [1] is given as “three”. For the molecule `C[C@@H](Oc1cc(-c2cnn(C3CCNCC3)c2)cnc1N)c1c(Cl)ccc(F)c1Cl` [crizotinib], the “tumor response at the end of treatment” value in assay [2] (crizotinib 40 mg/kg or lorlatinib 2 mg/kg, MRI) was “partial tumor regression”. The “tumor regression at higher dosages” value in assay [2] (higher dose (crizotinib 100 mg/kg DIE)) is “almost complete tumor regression”.
